Conditions: pigs, subcutaneous injection, external γ-counter

Substance: Arg^4,Arg^9,Lys^15 somatostatin
- T50% (time when 50% of the 125I-labelled peptide has disappeared from the site of injection): 0.7 ± 0.1 h

Substance: Arg^4,Arg^9,Lys^15(N^ε-tetradecanoyl) somatostatin [Example 4]
- T50% (time when 50% of the 125I-labelled peptide has disappeared from the site of injection): 1.7 ± 0.5 h
